The source of these data is patent publication US7897758B2, “Activators for oligonucleotide and phosphoramidite synthesis” (dated 2011).

The nature of series [1]: Explosion hazards, method A.14 of directive 92/69/EEC (thermal sensitivity, shock, friction). Particulars: steel tube test, Fallhammertest, GLP laboratory, BAM.
The conditions of series [2]: background statement; cited from earlier work.

Take `FC(F)(F)c1cc(-c2nn[nH]n2)cc(C(F)(F)F)c1`: the “explosion hazards: thermal sensitivity, mechanical sensitivity to shock and to friction” value in series [1] is reported as “neither thermally nor mechanically sensitive”.

In the case of `CCSc1nnn[nH]1`, in series [2], the “classification as explosive in Germany” value is recorded as “Category C explosive”.
